Data reported in publication PMC4314249, “Characterizing the Peroxisome Proliferator-Activated Receptor (PPARγ) Ligand Binding Potential of Several Major Flame Retardants, Their Metabolites, and Chemical Mixtures in House Dust” (Environmental Health Perspectives, 2014).

Amino acid sequences for entries named in this document (tags omitted). Residues count along the entry.
UniProt P37231, 238-503 limits assumed: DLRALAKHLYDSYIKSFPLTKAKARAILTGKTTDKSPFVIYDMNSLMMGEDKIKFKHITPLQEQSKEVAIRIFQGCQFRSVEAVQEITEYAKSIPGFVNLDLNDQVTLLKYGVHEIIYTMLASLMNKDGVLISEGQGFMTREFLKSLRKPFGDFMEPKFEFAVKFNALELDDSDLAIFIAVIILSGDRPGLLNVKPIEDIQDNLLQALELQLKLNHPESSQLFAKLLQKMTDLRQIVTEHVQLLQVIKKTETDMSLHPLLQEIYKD

Molecular target: T1, human PPARγ ligand-binding domain (Homo sapiens, UniProt P37231)
T1 construct: The kit uses the human-derived recombinant PPARγ LBD tagged with an N-terminal GST-tag; purchased Invitrogen
Assay: PolarScreen PPARγ-Competitor fluorescence polarization ligand binding assay

CN(CCOc1ccc(CC2SC(=O)NC2=O)cc1)c1ccccn1 (stereo not shown) [Rosiglitazone, rosiglitazone, reference compound]
inhibition of the binding between the PPARγ LBD and PPARγ Green probe: completely inhibit
